Biological target: μ-opioid receptor (Cavia porcellus, UniProt A0ACM8Q262)
Assay: Evaluation of antagonist activity at the μ-opioid receptor, guinea pig ileum test (tissue model, responses to DAMGO)
Settings: read-out: Responses to DAMGO (1.0E−07 M) in the presence of increasing concentrations of the compounds (% control response)
Procedure: Evaluation for Agonist and Antagonist Activities at the […] Receptors in the Guinea Pig Ileum
Agonist/antagonist activity at the μ-opioid receptor was determined using the well known guinea pig ileum test. Briefly, an a section of ileum was placed in a stabilized solution in a tensed state. Transducers were used to measure changes in tension upon electrical stimulation to the tissue before and after challenge with a potential agonist/antagonist Using a control, constriction inhibition, and constriction inhibition cancellation, may be measured.

Amino acid sequences for entries named in this document (tags omitted). Residues count along the entry.
UniProt A0ACM8Q262, 1-400: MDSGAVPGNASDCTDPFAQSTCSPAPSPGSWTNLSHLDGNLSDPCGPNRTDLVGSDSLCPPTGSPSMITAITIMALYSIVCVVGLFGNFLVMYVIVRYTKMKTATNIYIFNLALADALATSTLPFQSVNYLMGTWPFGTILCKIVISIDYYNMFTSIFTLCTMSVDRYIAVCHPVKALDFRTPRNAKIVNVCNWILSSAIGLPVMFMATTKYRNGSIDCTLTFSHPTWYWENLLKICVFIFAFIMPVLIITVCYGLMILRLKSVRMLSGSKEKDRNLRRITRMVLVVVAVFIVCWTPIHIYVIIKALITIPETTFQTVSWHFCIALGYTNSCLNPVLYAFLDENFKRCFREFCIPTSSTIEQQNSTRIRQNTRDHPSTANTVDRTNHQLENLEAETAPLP

C=CCN1CC[C@]23c4c5ccc(O)c4O[C@H]2C(=O)CC[C@@]3(O)[C@H]1C5 [naloxone, reference compound]
remaining activity at 0.1 µM (compound 1.0E^−07 M): -6%
remaining activity at 0.02 µM (compound 2.0E^−08 M): 51%
remaining activity at 0.005 µM (compound 5.0E^−09 M): 85%

Reference: patent US20080234306A1, “N-Oxides of 4,5-Epoxy-Morphinanium Analogs” (Progenics Pharmaceuticals, Inc., priority 2006, published 2008)
